{"sequences": {"note": "By UniProt entry, the sequences of proteins in these tests, tags left out. Residues count along the entry.", "UniProt P35968, 20-1356 limits assumed": "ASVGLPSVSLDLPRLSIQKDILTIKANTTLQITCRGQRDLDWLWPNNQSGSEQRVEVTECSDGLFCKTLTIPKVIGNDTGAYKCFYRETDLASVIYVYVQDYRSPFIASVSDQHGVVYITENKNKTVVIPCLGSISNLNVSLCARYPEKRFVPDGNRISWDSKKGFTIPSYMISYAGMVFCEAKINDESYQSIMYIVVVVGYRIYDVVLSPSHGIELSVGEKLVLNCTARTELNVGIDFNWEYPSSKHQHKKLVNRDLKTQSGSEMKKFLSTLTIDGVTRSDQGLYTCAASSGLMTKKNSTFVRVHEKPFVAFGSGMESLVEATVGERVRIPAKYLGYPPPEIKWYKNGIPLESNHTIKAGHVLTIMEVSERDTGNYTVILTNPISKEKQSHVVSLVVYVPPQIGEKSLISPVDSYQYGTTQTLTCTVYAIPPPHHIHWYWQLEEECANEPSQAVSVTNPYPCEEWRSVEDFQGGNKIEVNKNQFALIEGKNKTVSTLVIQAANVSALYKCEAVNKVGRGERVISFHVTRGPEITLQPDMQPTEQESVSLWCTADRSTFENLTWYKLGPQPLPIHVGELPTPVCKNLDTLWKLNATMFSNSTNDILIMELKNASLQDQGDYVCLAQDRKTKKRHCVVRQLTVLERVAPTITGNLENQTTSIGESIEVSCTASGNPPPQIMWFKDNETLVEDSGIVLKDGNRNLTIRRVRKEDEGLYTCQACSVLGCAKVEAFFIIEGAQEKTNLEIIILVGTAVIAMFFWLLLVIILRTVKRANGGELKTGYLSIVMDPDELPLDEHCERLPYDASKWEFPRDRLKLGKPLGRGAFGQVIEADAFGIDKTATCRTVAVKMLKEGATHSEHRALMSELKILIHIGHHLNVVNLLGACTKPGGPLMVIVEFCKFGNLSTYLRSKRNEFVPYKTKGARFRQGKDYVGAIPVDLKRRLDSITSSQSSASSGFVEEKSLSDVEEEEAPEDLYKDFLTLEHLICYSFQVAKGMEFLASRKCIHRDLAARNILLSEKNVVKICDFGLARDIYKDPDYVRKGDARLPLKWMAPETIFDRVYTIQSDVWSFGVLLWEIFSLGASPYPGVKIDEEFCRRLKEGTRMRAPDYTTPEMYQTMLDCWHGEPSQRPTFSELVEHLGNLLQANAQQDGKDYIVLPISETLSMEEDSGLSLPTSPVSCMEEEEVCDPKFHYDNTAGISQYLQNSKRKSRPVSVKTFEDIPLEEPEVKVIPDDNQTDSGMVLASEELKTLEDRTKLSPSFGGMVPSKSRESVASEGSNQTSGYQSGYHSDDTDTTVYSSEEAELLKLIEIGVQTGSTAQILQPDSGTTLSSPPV", "UniProt P08684, whole entry": "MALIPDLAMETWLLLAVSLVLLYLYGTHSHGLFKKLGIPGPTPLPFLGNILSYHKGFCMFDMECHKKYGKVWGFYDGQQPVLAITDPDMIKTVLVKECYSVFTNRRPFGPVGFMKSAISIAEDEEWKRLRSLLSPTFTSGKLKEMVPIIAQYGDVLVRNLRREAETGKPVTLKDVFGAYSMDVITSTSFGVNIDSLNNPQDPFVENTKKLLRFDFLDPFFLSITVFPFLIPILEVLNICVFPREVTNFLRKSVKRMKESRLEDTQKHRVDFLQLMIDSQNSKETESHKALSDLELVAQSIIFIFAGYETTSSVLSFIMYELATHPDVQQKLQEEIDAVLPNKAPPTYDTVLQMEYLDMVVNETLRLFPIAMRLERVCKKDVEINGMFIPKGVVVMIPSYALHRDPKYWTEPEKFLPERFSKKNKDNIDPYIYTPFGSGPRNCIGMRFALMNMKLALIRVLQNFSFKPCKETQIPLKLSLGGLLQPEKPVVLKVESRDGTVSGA", "UniProt P33261, whole entry": "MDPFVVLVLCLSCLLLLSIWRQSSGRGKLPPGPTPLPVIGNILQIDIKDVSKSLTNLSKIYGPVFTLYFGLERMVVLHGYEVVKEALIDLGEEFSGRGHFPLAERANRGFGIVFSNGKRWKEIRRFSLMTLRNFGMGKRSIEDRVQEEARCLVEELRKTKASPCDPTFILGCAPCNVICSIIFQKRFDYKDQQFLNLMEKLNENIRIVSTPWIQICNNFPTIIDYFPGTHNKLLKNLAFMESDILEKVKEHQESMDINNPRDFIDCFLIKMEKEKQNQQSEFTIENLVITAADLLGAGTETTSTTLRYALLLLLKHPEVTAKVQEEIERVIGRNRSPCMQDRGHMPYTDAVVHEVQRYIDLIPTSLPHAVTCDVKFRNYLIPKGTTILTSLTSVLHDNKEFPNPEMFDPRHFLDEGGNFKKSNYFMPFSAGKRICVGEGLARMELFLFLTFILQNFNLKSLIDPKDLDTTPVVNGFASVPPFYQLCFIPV", "UniProt P11712, whole entry": "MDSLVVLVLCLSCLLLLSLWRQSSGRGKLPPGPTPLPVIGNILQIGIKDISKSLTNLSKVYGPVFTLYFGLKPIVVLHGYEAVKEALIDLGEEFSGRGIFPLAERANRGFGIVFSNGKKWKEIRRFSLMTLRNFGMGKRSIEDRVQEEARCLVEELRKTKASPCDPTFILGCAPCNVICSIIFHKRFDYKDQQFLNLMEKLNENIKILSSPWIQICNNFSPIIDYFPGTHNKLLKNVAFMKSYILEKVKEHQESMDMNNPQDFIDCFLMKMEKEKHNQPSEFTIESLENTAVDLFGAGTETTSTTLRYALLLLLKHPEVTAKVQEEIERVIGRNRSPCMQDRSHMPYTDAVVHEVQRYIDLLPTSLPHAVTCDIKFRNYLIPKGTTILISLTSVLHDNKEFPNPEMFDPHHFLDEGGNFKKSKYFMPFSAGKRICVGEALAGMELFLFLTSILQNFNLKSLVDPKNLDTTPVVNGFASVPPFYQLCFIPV"}, "source": "patent US20040254185A1", "key": {"[1]": {"target": "VEGFR II (KDR) (Homo sapiens, UniProt P35968)", "assay": "Inhibition of the KDR kinase activity (33P-ATP, poly-(Glu4Tyr) substrate)", "conditions": "read-out: kinase inhibition IC50 VEGFR II (KDR); phosphate incorporation, 10 minutes at room temperature", "description": "Stock solution A: 3 mmol of ATP in water, pH 7.0 (−70° C.)\nStock solution B: g-33 P-ATP 1 mCi/100 μl\nStock solution C: poly-(Glu4 Tyr) 10 mg/ml in water\nSubstrate solvent: 10 mmol of DTT, 10 mmol of manganese chloride, 100 mmol of magnesium chloride\nEnzyme solution: 120 mmol of tris/HCl, pH 7.5, 10 μM of sodium vanadium oxide\nIn a microtiter plate (without protein binding) that tapers to a point, 10 μl of substrate mix (10 μl of volume of ATP stock solution A+25 μCi of g-33P-ATP (about 2.5 μl of stock solution B)+30 μl of poly-(Glu4Tyr) stock solution C+1.21 ml of substrate solvent), 10 μl of inhibitor solution (substances corresponding to the dilutions, 3% DMSO in substrate solvent as a control) and 10 μl of enzyme solution (11.25 μg of enzyme stock solution (KDR or FLT-1 kinase) are added at 4° C. in 1.25 ml of enzyme solution (dilute). It is thoroughly mixed and incubated for 10 minutes at room temperature. Then, 10 μl of stop solution (250 mmol of EDTA, pH 7.0) is added, mixed, and 10 μl of the solution is transferred to a P 81 phosphocellulose filter. Then, it is washed several times in 0.1 M phosphoric acid. The filter paper is dried, coated with Meltilex and measured in a microbeta counter. […]"}, "[2]": {"target": "human Cytochrome P 450 1A2 (Homo sapiens, UniProt P05177)", "assay": "Cytochrome P450 inhibition (Crespi et al.), isoenzyme 1A2", "conditions": "read-out: Inhibition of the Cytochrome P450 Isoenzymes (IC50) 1A2; baculovirus/insect cell-expressed human isoenzyme 1A2", "description": "(§1) The Cytochrome P450 inhibition was performed according to the publication of Crespi et al. (Anal. Biochem., 248, 188-190 (1997)) with use of baculovirus/insect cell-expressed, human Cytochrome P 450 isoenzymes (1A2, 2C9, 2C19, 3A4)."}, "[3]": {"target": "human Cytochrome P 450 3A4 (Homo sapiens, UniProt P08684)", "assay": "Cytochrome P450 inhibition (Crespi et al.), isoenzyme 3A4", "conditions": "read-out: Inhibition of the Cytochrome P450 Isoenzymes (IC50) 3A4; baculovirus/insect cell-expressed human isoenzyme 3A4", "description": "as §1"}, "[4]": {"target": "human Cytochrome P 450 2C19 (Homo sapiens, UniProt P33261)", "assay": "Cytochrome P450 inhibition (Crespi et al.), isoenzyme 2C19", "conditions": "read-out: Inhibition of the Cytochrome P450 Isoenzymes (IC50) 2C19; baculovirus/insect cell-expressed human isoenzyme 2C19", "description": "as §1"}, "[5]": {"target": "human Cytochrome P 450 2C9 (Homo sapiens, UniProt P11712)", "assay": "Cytochrome P450 inhibition (Crespi et al.), isoenzyme 2C9", "conditions": "read-out: Inhibition of the Cytochrome P450 Isoenzymes (IC50) 2C9; baculovirus/insect cell-expressed human isoenzyme 2C9", "description": "as §1"}}, "data": [{"compound": "O=C(NCCCO)c1cc(CNc2ccccc2C(=O)Nc2cc3ccccc3cn2)ccn1", "values": [{"measurement": "IC50", "setting": "[1]", "result": 0.04, "unit": "µM"}, {"measurement": "IC50", "setting": "[2]", "result": 30, "unit": "µM"}, {"measurement": "IC50", "setting": "[3]", "result": 25, "unit": "µM"}, {"measurement": "IC50", "setting": "[4]", "result": 4.9, "unit": "µM"}, {"measurement": "IC50", "setting": "[5]", "result": 2.9, "unit": "µM"}]}]}
